{"source": "patent US10668168B2", "about": "“Method for removing weakly bound functional moieties from cell targeting conjugates” (priority 2015, dated 2020)", "test": "Released NBD label after thiourea stripping of conjugates prepared with varying conjugation times", "type": "physicochemical", "conditions": "thiourea 10 mM, 37 °C, 30 minutes", "data": [{"substance": "NBD-4Py-Lx-trastuzumab", "values": [{"measurement": "Released label (%)", "setting": "conjugation time 2 h", "value": 47.1, "unit": "%"}, {"measurement": "Released label (%)", "setting": "conjugation time 6 h", "value": 44.8, "unit": "%"}]}]}
